## Ab-95 light chain CDR variants: yeast mating affinities

Values reported by Engelhart et al. 2022, doi:10.1038/s41597-022-01779-4 (FLAb copy).

Antigen: PDVDLGDISGINAS, a 14-residue peptide of the SARS-CoV-2 spike HR2 region.

Parent: Ab-95, a human scFv built as VH, three GGGGS repeats, VL. Only the CDRs of the light chain vary.
VH: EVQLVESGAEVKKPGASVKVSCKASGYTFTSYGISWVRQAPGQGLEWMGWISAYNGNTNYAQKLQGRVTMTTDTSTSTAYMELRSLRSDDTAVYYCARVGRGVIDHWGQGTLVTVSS
VL: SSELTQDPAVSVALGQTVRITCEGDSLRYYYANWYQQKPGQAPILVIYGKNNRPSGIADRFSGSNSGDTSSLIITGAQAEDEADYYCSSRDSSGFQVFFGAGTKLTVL

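AAYL52 was designed without a model: most single CDR substitutions and a random sample of double and triple ones. The scFvs were displayed on barcoded MATa yeast, the peptide on MATalpha yeast. Binding brings cells together so that they mate, and sequencing counts the barcode pairs among the diploids. The ratio of observed to expected reads was calibrated, replicate by replicate, on BCL2-family standards whose Kd was known from biolayer interferometry. There are three technical replicates.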

Each variant is given by its three light chain CDRs, as the data file delimits them; those of the parent are EGDSLRYYYAN, GKNNRPS, SSRDSSGFQVF.
All variants listed here change G94 of the VL, counted from its first residue.
Values are log10 of the apparent Kd in nM; lower means stronger binding.
The mean shown is taken over the replicates in which the pair was detected.
A pair that was not seen in any replicate is written "nd"; this usually means weak binding, but a binder can also be missed.
Empty control strains, which show no peptide, gave a signal in 28% of pairings with library AAYL52; the median was 3.91 and 95% of these signals were weaker than 2.90. No background was subtracted.

For EGDSLRYYYAH / GKNNRPS / SSRDSSLFQVA, the assay gave 3.39 (1 of 3 replicates).
For EGDSLRYYYAN / CKNNRPS / HSRDSSKFQVF, the assay gave 4.53 (1 of 3 replicates).
For EGDDLRYYYAN / GKNNRPS / SSRDSSTFQYF, the assay gave 4.45 (2 of 3 replicates).
For EGASLRYTYAN / GKNNRPS / SSRDSSNFQVF, the assay gave 1.69 (3 of 3 replicates).
For EGDSLRYYYAN / GRNNRDS / SSRDSSTFQVF, the assay gave 3.44 (1 of 3 replicates).
For EGDSLRFYYAN / GKNNRPS / SSRDSSYFRVF, the assay gave 2.71 (3 of 3 replicates).
For EGDSLRYYHAN / GKNNRPS / SSRDSQEFQVF, the assay gave 2.93 (3 of 3 replicates).
For EGDTLRYYYAN / GKNNRPS / DSRDSSKFQVF, the assay gave 4.07 (2 of 3 replicates).
For EGDSLRYYYAN / GKNNLPS / SSRHSSRFQVF, the assay gave 3.59 (2 of 3 replicates).
For EGDSLCYYYAN / GKNNRPS / SDRDSSVFQVF, the assay gave 3.83 (3 of 3 replicates).
For RGDSLRYYYAN / GKNNRPS / SSKDSSQFQVF, the assay gave 2.21 (3 of 3 replicates).
For EGDSLRYYYAN / GMNNRPS / SSRDTSSFQVF, the assay gave 2.21 (3 of 3 replicates).
For DGDSLRYYYAN / GKNNRPS / SSHDSSCFQVF, the assay gave 2.84 (3 of 3 replicates).
For EGDSLRYYYAN / GKNIRPS / SSRDSSFFTVF, the assay gave nd (0 of 3 replicates).
For EGDSLRYYYKN / GKNNRPS / YSRDSSHFQVF, the assay gave 4.83 (1 of 3 replicates).
For EGDSLRYYYAN / GKNNRDS / SSRDSSDFEVF, the assay gave 2.41 (3 of 3 replicates).
For EGDSLRYYYAN / GKNNRPS / SSNDSSWAQVF, the assay gave 3.44 (3 of 3 replicates).
For EGDSLRYYYWN / GKNNQPS / SSRDSSDFQVF, the assay gave nd (0 of 3 replicates).
For EGDSLRYYYAN / GKNNTPS / SSRDSSAFQVF, the assay gave 3.83 (1 of 3 replicates).
For EGDSLRYYYAN / GKNNRPS / SSRLSSEFQVF, the assay gave 4.28 (1 of 3 replicates).
For EGDSLRYYYAN / GKNNRPS / SSRDSSRFQVF, the assay gave 4.51 (3 of 3 replicates).
For EGDSLRYYYAN / GKWNRES / SSRDSSMFQVF, the assay gave 2.70 (1 of 3 replicates).
For EGDYLRYYYAN / GKNNRPS / SSRDSNQFQVF, the assay gave 3.75 (3 of 3 replicates).
For EGDSLRYYYAN / GKLNDPS / SSRDSSPFQVF, the assay gave 3.58 (1 of 3 replicates).
For EGDSLRYYYAN / GKNNRPS / QSRDSSYKQVF, the assay gave 2.94 (1 of 3 replicates).
For EGDSLRYYYAN / GHNNRPS / SSRDSSMFQVF, the assay gave 2.69 (3 of 3 replicates).
For EGASLRYYYAN / GKNDRPS / SSRDSSNFQVF, the assay gave nd (0 of 3 replicates).
For EGDSLRYYCHN / GKNNRPS / SSRDSSLFQVF, the assay gave 5.06 (2 of 3 replicates).
For EGDSLRYYYFN / GKNTRPS / SSRDSSQFQVF, the assay gave 4.82 (2 of 3 replicates).
For EGDSLSYYYAN / GKNNRLS / SSRDSSLFQVF, the assay gave 3.45 (3 of 3 replicates).
For EGDSLRYYYAN / GKLNRPS / SSRDSSYFQVF, the assay gave 3.75 (2 of 3 replicates).
For EGDSIRYYFAN / GKNNRPS / SSRDSSVFQVF, the assay gave nd (0 of 3 replicates).
For EGDSLRYYYKN / GKNNRPS / SSRDSSKFQVF, the assay gave 2.89 (1 of 3 replicates).
For EGDSLAYYYEN / GKNNRPS / SSRDSSFFQVF, the assay gave 4.23 (3 of 3 replicates).
For VGDSLRYYYAN / GKNNRPS / SSRDSEPFQVF, the assay gave 2.32 (3 of 3 replicates).
For EGLSLRYYYAN / GKNNRKS / SSRDSSSFQVF, the assay gave 3.64 (1 of 3 replicates).
For EGDSLRYYYAN / GKNNRVS / ESRDSSTFQVF, the assay gave 2.91 (2 of 3 replicates).
For EGDSLREYYAN / DKNNRPS / SSRDSSKFQVF, the assay gave 3.40 (3 of 3 replicates).
For EGDSLRYYCAN / GKNNRDS / SSRDSSYFQVF, the assay gave nd (0 of 3 replicates).
For EGDSLRYYYAN / GKNNRPS / SSRDSSYFQVF, the assay gave 2.36 (3 of 3 replicates).
For EGDSLRYYYAN / GKNNRPS / SSRDSNSFQVF, the assay gave 2.48 (3 of 3 replicates).
For EGDSLRWYYAN / GKNNRPS / SSRDSMMFQVF, the assay gave 3.70 (3 of 3 replicates).

5 of these entries, quoted again:

EGDSLAYYYEN / GKNNRPS / SSRDSSFFQVF: 4.23 (3 of 3 replicates).
EGDSLRFYYAN / GKNNRPS / SSRDSSYFRVF: 2.71 (3 of 3 replicates).
EGDSLREYYAN / DKNNRPS / SSRDSSKFQVF: 3.40 (3 of 3 replicates).
EGDSLRYYYAN / GKLNDPS / SSRDSSPFQVF: 3.58 (1 of 3 replicates).
EGDSLRYYYAH / GKNNRPS / SSRDSSLFQVA: 3.39 (1 of 3 replicates).